Data taken from patent US20240261333A1, “NOVEL TARGETS FOR ENHANCING ANTI-TUMOR IMMUNITY” (THE BROAD INSTITUTE, INC., priority 2021, published 2024).

Legend:
Test in all cases: co-IP, IgG control, lysate of C-FLAG B3GNT2 cells, mass spectrometry
RPL29 = RPL29 (UniProt P47914)
RAB1B = RAB1B (UniProt Q9H0U4)
SLC25A10 = SLC25A10 (UniProt Q9UBX3)
CALM2 = CALM2 (UniProt P0DP24)
HLA-A = HLA-A (UniProt P04439)
SRSF7 = SRSF7 (UniProt Q16629)

Measured: co-IP/MS count

IgG control (Millipore Sigma 12-371) (antibody)
0: all assays above
